Sequences of proteins named here, by UniProt entry; tags and fusion partners are left off.
UniProt P27338, whole entry: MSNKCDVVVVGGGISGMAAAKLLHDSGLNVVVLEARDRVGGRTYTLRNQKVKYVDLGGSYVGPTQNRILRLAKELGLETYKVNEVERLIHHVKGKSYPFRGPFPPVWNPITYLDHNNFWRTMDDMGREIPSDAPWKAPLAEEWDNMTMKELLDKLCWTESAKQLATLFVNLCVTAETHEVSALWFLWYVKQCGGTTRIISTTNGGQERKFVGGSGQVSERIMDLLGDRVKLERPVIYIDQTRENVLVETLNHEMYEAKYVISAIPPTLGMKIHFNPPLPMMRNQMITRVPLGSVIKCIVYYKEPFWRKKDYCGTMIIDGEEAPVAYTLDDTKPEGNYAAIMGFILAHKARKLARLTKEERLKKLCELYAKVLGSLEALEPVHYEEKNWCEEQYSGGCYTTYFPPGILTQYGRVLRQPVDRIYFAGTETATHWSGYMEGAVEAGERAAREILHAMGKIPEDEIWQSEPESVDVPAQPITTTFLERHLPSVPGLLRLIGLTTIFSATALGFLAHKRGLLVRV

According to ChEMBL document CHEMBL4130492, “Tying up tranylcypromine: Novel selective histone lysine specific demethylase 1 (LSD1) inhibitors” (Eur J Med Chem, 2017):

Biological target: Amine oxidase [flavin-containing] B (Homo sapiens, UniProt P27338)
Assay: biochemical

With `NC1CCC(N[C@@H]2C[C@H]2c2ccccc2)CC1` (stereo partly specified) the IC50 was > 100 µM.
